{
  "source": "patent US7786151B2",
  "about": "“Therapeutic composition of treating abnormal splicing caused by the excessive kinase induction” (KinoPharma, Inc., priority 2004, dated 2010)",
  "system": "adenovirus E1A pre-mRNA alternative splicing",
  "assay": "In vivo splicing assay, adenovirus E1A minigene with Clk1/Sty in COS-7 cells",
  "conditions": "COS-7, RT-PCR",
  "data": [
    {"smiles": "CCN1/C(=C/C(C)=O)Sc2ccc(OC)cc21", "note": "[TG003, (Z)-1-(3-ethyl-5-methoxy-2,3-dihydrobenzothiazol-2-ylidene)propan-2-one]", "values": [
      {"measurement": "E1A 9 S isoform production induced by Clk1/Sty", "value": "inhibited the production of the 9 S isoform"}
    ]}
  ]
}
